In patent EP0969015A2, “Peptide diagnostic markers for human disorders” (Ortho-Clinical Diagnostics, Inc., priority 1998, dated 2000):

Assay: Stability of peptides in urine samples
Conditions: compared with the gluten/casein related peptides; not studied in a systematic manner

Q: With “NH4-PheLeuPheGlnProGlnArgPhe-COOH [morphine modulating neuropeptide]” as the substance, how does the stability in urine read?
A: more stable in urine than the gluten/casein related peptides
